Measured values reported in ChEMBL document CHEMBL3813616, “Discovery of novel 7-azaindoles as PDK1 inhibitors” (Bioorg Med Chem Lett, 2016).

By UniProt entry, the sequences of proteins in these tests, tags left out. Where a name states a change or a piece, a line headed by the entry shows the natural chain unless it says otherwise.
UniProt Q02763: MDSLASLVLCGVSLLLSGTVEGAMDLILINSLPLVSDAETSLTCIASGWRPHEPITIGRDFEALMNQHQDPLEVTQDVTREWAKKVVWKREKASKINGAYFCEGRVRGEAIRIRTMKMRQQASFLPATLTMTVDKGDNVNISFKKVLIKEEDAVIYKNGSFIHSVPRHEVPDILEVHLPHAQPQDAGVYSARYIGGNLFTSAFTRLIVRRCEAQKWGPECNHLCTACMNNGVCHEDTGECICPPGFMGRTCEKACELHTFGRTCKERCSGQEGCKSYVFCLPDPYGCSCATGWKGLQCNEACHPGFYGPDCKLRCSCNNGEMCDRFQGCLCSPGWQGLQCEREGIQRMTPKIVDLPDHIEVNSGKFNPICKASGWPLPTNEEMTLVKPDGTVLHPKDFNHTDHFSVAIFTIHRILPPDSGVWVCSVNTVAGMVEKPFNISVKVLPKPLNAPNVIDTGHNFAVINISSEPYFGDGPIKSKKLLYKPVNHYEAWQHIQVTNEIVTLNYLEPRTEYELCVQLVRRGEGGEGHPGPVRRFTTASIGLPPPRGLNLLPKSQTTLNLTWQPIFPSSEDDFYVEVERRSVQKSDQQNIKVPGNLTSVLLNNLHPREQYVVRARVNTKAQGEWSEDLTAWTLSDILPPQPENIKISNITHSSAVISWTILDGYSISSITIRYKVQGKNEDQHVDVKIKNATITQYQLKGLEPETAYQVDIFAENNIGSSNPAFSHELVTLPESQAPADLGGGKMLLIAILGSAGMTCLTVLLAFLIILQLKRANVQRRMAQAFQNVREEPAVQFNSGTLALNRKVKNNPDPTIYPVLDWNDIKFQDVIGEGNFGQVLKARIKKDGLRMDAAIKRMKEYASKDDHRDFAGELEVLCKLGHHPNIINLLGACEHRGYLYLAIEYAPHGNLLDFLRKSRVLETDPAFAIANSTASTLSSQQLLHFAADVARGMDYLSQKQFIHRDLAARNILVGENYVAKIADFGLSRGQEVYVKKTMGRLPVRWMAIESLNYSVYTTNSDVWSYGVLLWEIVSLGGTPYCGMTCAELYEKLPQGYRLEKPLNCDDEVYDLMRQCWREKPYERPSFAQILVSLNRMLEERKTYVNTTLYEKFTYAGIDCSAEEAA

Columns and labels:
[1] = molecular target: Angiopoietin-1 receptor (Homo sapiens) (UniProt Q02763); assay: Inhibition of human TIE2 (771 to 1124 residues) assessed as enzyme activity at 1 uM using 33P ATP by radioactive filter binding assay; parameters: scale not given: the % may be the effect or the level left
[2] = tested on: MAPK3 (ERK1); assay: Inhibition of human MAPK3 (2 to 379 residues) assessed as enzyme activity at 1 uM using 33P ATP by radioactive filter binding assay; parameters: scale not given: the % may be the effect or the level left
[3] = molecular target: Tyrosine-protein kinase SYK (Homo sapiens) (UniProt P43405); assay: Inhibition of human SYK (1 to 635 residues) assessed as enzyme activity at 1 uM using 33P ATP by radioactive filter binding assay; parameters: scale not given: the % may be the effect or the level left
[4] = Efflux ratio of permeability from basolateral to apical over apical to basolateral side in human Caco2 cells; type: ADME, cell-based; conditions: caco-2

Row | Activity [1] | Activity [2] | Activity [3] | Ratio [4] | Structure (SMILES)
1 | 19% | -19% | – | – | Nc1nccc(-c2c[nH]c3ncccc23)n1 [MERIOLIN 1]
2 | – | -5% | – | – | CCCCc1cc(-c2c[nH]c3ncccc23)nc(N)n1
3 | – | -21% | 21% | 0.6 | CCc1cc(-c2c[nH]c3ncc(-c4cnn(C5CCNCC5)c4)cc23)nc(N)n1
